We go through 9 compounds from patent US20080269251A1, “Substituted Pyrazinone Derivatives as Alpha2C-Adrenoreceptor Antagonists” (priority 2005, published 2008).

Sequences of proteins named here, by UniProt entry; tags and fusion partners are left off.
UniProt P31645, whole entry: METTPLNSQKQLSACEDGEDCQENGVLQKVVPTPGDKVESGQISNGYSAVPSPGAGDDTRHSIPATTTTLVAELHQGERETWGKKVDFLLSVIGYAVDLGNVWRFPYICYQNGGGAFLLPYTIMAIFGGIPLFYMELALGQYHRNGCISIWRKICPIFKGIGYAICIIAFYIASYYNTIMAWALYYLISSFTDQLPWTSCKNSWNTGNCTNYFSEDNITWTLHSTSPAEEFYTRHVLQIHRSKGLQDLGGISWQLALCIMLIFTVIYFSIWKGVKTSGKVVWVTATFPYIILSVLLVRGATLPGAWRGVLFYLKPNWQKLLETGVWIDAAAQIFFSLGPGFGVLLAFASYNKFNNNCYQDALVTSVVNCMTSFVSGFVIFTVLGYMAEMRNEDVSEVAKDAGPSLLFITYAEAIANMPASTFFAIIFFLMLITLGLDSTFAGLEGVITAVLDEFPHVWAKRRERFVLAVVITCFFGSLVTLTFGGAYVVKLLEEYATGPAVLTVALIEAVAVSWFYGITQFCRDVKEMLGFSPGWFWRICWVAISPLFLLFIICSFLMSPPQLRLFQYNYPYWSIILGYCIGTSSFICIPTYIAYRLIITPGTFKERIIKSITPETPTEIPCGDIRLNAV
UniProt P08913, whole entry: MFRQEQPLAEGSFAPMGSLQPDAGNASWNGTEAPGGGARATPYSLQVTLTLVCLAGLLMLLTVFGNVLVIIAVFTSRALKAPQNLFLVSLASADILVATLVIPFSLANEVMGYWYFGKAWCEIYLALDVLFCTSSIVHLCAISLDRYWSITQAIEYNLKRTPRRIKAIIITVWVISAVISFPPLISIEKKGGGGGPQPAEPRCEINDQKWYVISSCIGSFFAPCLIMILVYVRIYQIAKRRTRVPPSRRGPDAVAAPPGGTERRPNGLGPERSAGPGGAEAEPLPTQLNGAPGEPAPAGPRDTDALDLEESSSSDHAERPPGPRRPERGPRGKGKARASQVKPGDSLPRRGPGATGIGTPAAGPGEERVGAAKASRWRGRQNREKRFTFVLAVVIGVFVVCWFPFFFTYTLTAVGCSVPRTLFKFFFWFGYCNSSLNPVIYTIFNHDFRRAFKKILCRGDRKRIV
UniProt P18825, whole entry: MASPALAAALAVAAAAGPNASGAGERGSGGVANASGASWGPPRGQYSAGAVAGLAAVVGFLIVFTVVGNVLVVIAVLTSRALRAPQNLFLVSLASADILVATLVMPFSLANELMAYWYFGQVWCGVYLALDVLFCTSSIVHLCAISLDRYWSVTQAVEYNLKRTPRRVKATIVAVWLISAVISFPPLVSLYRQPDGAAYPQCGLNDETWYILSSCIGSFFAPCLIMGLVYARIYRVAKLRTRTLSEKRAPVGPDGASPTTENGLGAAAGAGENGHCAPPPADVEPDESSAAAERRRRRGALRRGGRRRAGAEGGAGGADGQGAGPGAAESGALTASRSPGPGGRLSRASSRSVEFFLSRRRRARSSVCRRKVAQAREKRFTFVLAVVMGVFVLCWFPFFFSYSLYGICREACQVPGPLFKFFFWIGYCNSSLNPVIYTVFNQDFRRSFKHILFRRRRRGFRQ

The target of one assay is 5HT-transporter (Homo sapiens, UniProt P31645). The experiment in a line: Binding experiment for the 5HT-transporter ([3H]paroxetine, human platelet membranes). As to conditions: [3H]paroxetine 0.5 nM, 60 min at 25° C.
Assay [1] has as its target human adrenergic-α2A receptor (Homo sapiens, UniProt P08913). The experiment in a line: Radioligand binding experiment for hα2A-adrenergic receptor ([3H]raulwolscine). As to conditions: [3H]raulwolscine 1 nM, 60 minutes at 25° C. As for the experimental part:
(§1) The interaction of the compounds of Formula (I) with α2C-adrenoceptor receptors was assessed in in vitro radioligand binding experiments. In general, a low concentration of a radioligand with a high binding affinity for a particular receptor or transporter is incubated with a sample of a tissue preparation enriched in a particular receptor or transporter or with a preparation of cells expressing cloned human receptors in a buffered medium. During the incubation, the radioligand binds to the receptor or transporter. When equilibrium of binding is reached, the receptor bound radioactivity is separated from the non-bound radioactivity, and the receptor- or transporter-bound activity is counted. The interaction of the test compounds with the receptor is assessed in competition binding experiments. Various concentrations of the test compound are added to the incubation mixture containing the receptor- or transporter preparation and the radioligand. The test compound in proportion to its binding affinity and its concentration inhibits binding of the radioligand. The radioligand used for […] receptor binding was [^3H]-raulwolscine.
(§2) CHO cells, stabile transfected with human adrenergic-α2A, -α2B or α2C receptor cDNA, were cultured in Dulbecco's Modified Eagle's Medium (DMEM)/Nutrient mixture Ham's F12 (ratio 1:1)(Gibco, Gent-Belgium) supplemented with 10% heat inactivated fetal calf serum (Life Technologies, Merelbeke-Belgium) and antibiotics (100 IU/ml penicillin G, 100 μg/ml streptomycin sulphate, 110 μg/ml pyruvic acid and 100 μg/ml L-glutamine). One day before collection, cells were induced with 5 mM sodiumbutyrate. Upon 80-90% of confluence, cells were scraped in phosphate buffered saline without Ca^2+ and Mg^2+ and collected by centrifugation at 1500×g for 10 minutes. The cells were homogenised in Tris-HCl 50 mM using an Ultraturrax homogenizer and centrifuged for 10 minutes at 23,500×g. The pellet was washed once by resuspension and rehomogenization and the final pellet was resuspended in Tris-HCl, divided in 1 ml aliquots and stored at −70° C.
(§3) Membranes were thawed and re-homogenized in incubation buffer (glycylglycine 25 mM, pH 8.0). In a total volume of 500 μl, 2-10 μg protein was incubated with [^3H]raulwolscine (NET-722) (New England Nuclear, USA) (1 nM final concentration) with or without competitor for 60 minutes at 25° C. followed by rapid filtration over GF/B filter using a Filtermate196 harvester (Packard, Meriden, Conn.). Filters were rinsed extensively with ice-cold rinsing buffer (Tris-HCl 50 mM pH 7.4). Filter-bound radioactivity was determined by scintillation counting in a Topcount (Packard, Meriden, Conn.) and results were expressed as counts per minute (cpm). Non-specific binding was determined in the presence of 1 μM oxymetazoline for hα2A- and hα2B receptors and 1 μM spiroxatrine for hα2C receptors.
(§4) Data from assays in the presence of compound were calculated as a percentage of total binding measured in the absence of test compound. Inhibition curves, plotting percent of total binding versus the log value of the concentration of the test compound, were automatically generated, and sigmoidal inhibition curves were fitted using non-linear regression. The pIC50 values of test compounds were derived from individual curves.

For assay [2], the target named is human adrenergic-α2C receptor (Homo sapiens, UniProt P18825). The experiment in a line: Radioligand binding experiment for hα2C-adrenoceptor ([3H]raulwolscine). As to conditions: [3H]raulwolscine 1 nM, 60 minutes at 25° C. As for the experimental part: as §1, §2, §3, §4

As to `COc1ccc(Cn2c(-c3ccc(Br)cc3)c(Cl)nc(NC3CCN(Cc4ccc5ccccc5c4)CC3)c2=O)cc1`, the “h-5HTT pIC50” value on 5HT-transporter was found to be 5.7. Besides, the “h-α2A pIC50” value in assay [1] was 5.9. In assay [2], the “h-α2C pIC50” value stood at 5.7.
`CN1CCN(C(=O)NCc2ccc(-n3ccnc(NC4CCN(Cc5ccc6ccccc6c5)CC4)c3=O)cc2)CC1`: the “h-5HTT pIC50” value at 5HT-transporter turned out to be 8.3. Also, the “h-α2A pIC50” value in assay [1] turned out to be 6.8. Moreover, the “h-α2C pIC50” value in assay [2] amounted to 7.8.
For `COc1ccc(Cn2c(-c3cccc(Br)c3)c(Cl)nc(NC3CCN(Cc4ccc5ccccc5c4)CC3)c2=O)cc1`, in that order: 6.2, 5.5 and 5.8.
`O=C(CCC(Cn1ccnc(NC2CCN(Cc3cccc4ccccc34)CC2)c1=O)C(=O)c1ccccc1)c1ccccc1` (stereo not drawn): the “h-5HTT pIC50” value at 5HT-transporter is given as 7.5. For the same compound, the “h-α2A pIC50” value in assay [1] is recorded as 5.9. The “h-α2C pIC50” value in assay [2] came to 6.8.
`CCCNCc1ccc(-c2[nH]c(=O)c(NC3CCN(Cc4ccc5ccccc5c4)CC3)nc2Cl)cc1`: the “h-5HTT pIC50” value on 5HT-transporter (tested form: 2CF3COOH) came out at 6.6. For the same compound, in assay [1] (tested form: 2CF3COOH), the “h-α2A pIC50” value was 6.3. The “h-α2C pIC50” value in assay [2] (tested form: 2CF3COOH) is 6.8.
Consider `COc1ccc(Cn2c(-c3cccc(CN4CCOCC4)c3)c(Cl)nc(NC3CCN(Cc4ccc5ccccc5c4)CC3)c2=O)cc1`, for which the “h-5HTT pIC50” value at 5HT-transporter is 6.9. For the same compound, the “h-α2A pIC50” value in assay [1] amounted to 6.5. For the same compound, the “h-α2C pIC50” value in assay [2] is on record as 6.8.
On the same counts, the results for `COc1ccc(Cn2c(-c3cccc(CNCCF)c3)c(Cl)nc(NC3CCN(Cc4ccc5ccccc5c4)CC3)c2=O)cc1` are 7.1, 6.3 and 6.8.
For `CCCOCc1ccc(-n2ccnc(NC3CCN(Cc4ccc5ccccc5c4)CC3)c2=O)cc1`, in that order: 7.7, 6.8 and 8.2.
Regarding `CCCNCc1ccc(-c2c(Cl)nc(NC3CCN(Cc4ccc5ccccc5c4)CC3)c(=O)n2Cc2ccc(OC)cc2)cc1`, the “h-5HTT pIC50” value at 5HT-transporter stood at 6.9. For the same compound, in assay [1], the “h-α2A pIC50” value was 6.3. Further, the “h-α2C pIC50” value in assay [2] was determined as 6.6.
